Literature values, collected in patent publication US20220331433A1, “NUCLEIC ACID-MEDIATED DELIVERY OF THERAPEUTICS” (The Regents of the University of California, priority 2019, published 2022).

Conditions: reported; cited from earlier work

Q: For “N-(2-hydroxypropyl) methyl acrylamide polymer-doxorubicin [HPMA-DOX]”, which Circulation time is on record?
A: 20.1 h
